# Experimental data published in ChEMBL document CHEMBL5108047 (J Med Chem, 2022).
# Details: mouse, microsomes
smiles,measurement,value
O=C(Cc1ccc(C(F)(F)F)cc1C(F)(F)F)N(CC#Cc1cccnn1)c1ccccc1,CLH,31 µL/min/mg
